According to patent US6733779B2, “Method of treating benign prostatic hyperplasia and other benign prostate conditions” (priority 1999, dated 2004):

Experiment: Side effects observed in the treated patients (informal trials)
Conditions: 40 mg daily continued beyond fourteen days; normally subside after the sustaining dosage is instituted

CC1=C(/C=C/C(C)=C/C=C/C(C)=C\C(=O)O)C(C)(C)CCC1 [Accutane, 13-cis retinoic acid]
side effects of the initial treatment: tenderness at sites of old injuries to the fibro-musculo-skeletal system, dry skin, chapped lips, dry eyes, and dry nose, tend to occur
